The numbers were not newly measured in patent US20210316003A1 (Immunomedics, Inc., priority 2020, published 2021), which cites them from elsewhere.

The subject of the data set is patients with metastatic urothelial cancer (mUC). The settings on record: 35 mUC patients, 10 mg/kg; cited from earlier work.

On to sacituzumab govitecan, for which the Safety profile result is “no greater than or equal to grade 3 neuropathy, no interstitial lung disease and no treatment related deaths”.
